Reference: patent US11484595B2, “Carrier molecule compositions and related methods” (JYSK Skin Solutions PTE .LTD., priority 2014, dated 2022)

Experiment: Transcutaneous flux through porcine skin grafts; receptor fluid read by spectrophotometer

FFFIL VFGGGKKRPKPG [SK-1]
calculated transcutaneous flux of the biologically active molecules and carrier molecules (absorbance compared with standards, micelle base, porcine skin grafts): 1.8% | absorbance of receptor fluid (Table 2) (porcine skin grafts 0.045-0.055 inches, n=5, single application in CETAPHIL moisturizer micelle base with alkaline phosphatase conjugate (150 kD) and salicylate, receptor fluid 0.9% NaCl collected 14-16 hours): 2.729
